We go through three compounds from US20250235566A1, “[…]-[…] LABELING PRECURSORS AND RA[…] THEREFROM” (Medianezia GmbH, priority 2021, published 2025).

A short description of this series: Determination of log D (1-octanol/PBS) of the labeled compounds. The series is classed as physicochemical. The method, then: To this was added each time 700 μL of 1-octanol, and the mixture was shaken vigorously for 2 min and then centrifuged for 1 min. The organic and aqueous phases were separated and 400 μL of each was isolated. Samples of 3 μL (PBS) and 6 μL (1-octanol) were dabbed onto a TLC plate. Most of the activity was in the aqueous phase. This was subsequently diluted to 700 μL and extracted twice more with 1-octanol and dabbed on again. The TLC was exposed for about 5 min, and the integral of each spot (octanol phase: lo, aqueous PBS phase: lw) was determined. The calculation of the log D value by equation (1) took account of the different volumes Vo=6 μL and Vw=3 μL:
For the evaluation, the values from the 2nd and 3rd extractions of the 4 batches were averaged.

As to `CN(CC(=O)O)C1(CCCCC(=O)N[C@@H](CCC(=O)NCCCCOc2ccc3nccc(C(=O)NCC(=O)N4CC(F)(F)C[C@H]4C#N)c3c2)C(=O)NCCCCOc2ccc3nccc(C(=O)NCC(=O)N4CC(F)(F)C[C@H]4C#N)c3c2)CN(CC(=O)O)CCN(CC(=O)O)C1` [DATA^5m.Glu.(FAPi)2, 2,2′-(6-(5-(((S)-1,5-bis((4-((4-((2-((S)-2-cyano-4,4-difluoropyrrolidin-1-yl)-2-oxoethyl)carbamoyl)quinolin-6-yl)oxy)butyl)amino)-1,5-dioxopentan-2-yl)amino)-5-oxopentyl)-6-((carboxymethyl)(methyl)amino)-1,4-diazepane-1,4-diyl)diacetic acid], the “log D value” (^68Ga-labeled compound) was −2.03 ± 0.05. Take `N#C[C@@H]1CC(F)(F)CN1C(=O)CNC(=O)c1ccnc2ccc(OCCCCNC(=O)CC[C@H](NC(=O)CCC(C(=O)O)N3CCN(CC(=O)O)CCN(CC(=O)O)CCN(CC(=O)O)CC3)C(=O)NCCCCOc3ccc4nccc(C(=O)NCC(=O)N5CC(F)(F)C[C@H]5C#N)c4c3)cc12` (stereo partly drawn) [DOTAGA.Glu.(FAPi)2, 2,2′,2″-(10-(4-(((S)-1,5-bis((4-((4-((2-((S)-2-cyano-4,4-difluoropyrrolidin-1-yl)-2-oxoethyl)carbamoyl)quinolin-6-yl)oxy)butyl)amino)-1,5-dioxopentan-2-yl)amino)-1-carboxy-4-oxobutyl)-1,4,7,10-tetraazacyclododecan-1,4,7-triyl)triacetic acid]: the “log D value” runs as follows: (^68Ga-labeled compound) −2.48 ± 0.05; (^177Lu-labeled compound) −2.77 ± 0.10. Taken in the same sequence, the figures for `N#C[C@@H]1CC(F)(F)CN1C(=O)CNC(=O)c1ccnc2ccc(OCCCCNC(=O)CC[C@H](NC(=O)CN3CCN(CC(=O)O)CCN(CC(=O)O)CCN(CC(=O)O)CC3)C(=O)NCCCCOc3ccc4nccc(C(=O)NCC(=O)N5CC(F)(F)C[C@H]5C#N)c4c3)cc12` [DOTA.Glu.(FAPi)2, 2,2′,2″-(10-(2-(((S)-1,5-bis((4-((4-((2-((S)-2-cyano-4,4-difluoropyrrolidin-1-yl)-2-oxoethyl)carbamoyl)quinolin-6-yl)oxy)butyl)amino)-1,5-dioxopentan-2-yl)amino)-2-oxoethyl)-1,4,7,10-tetraazacyclododecan-1,4,7-triyl)triacetic acid] were −2.08 ± 0.07 and −1.77 ± 0.10.
